# Measured values from patent US9499523B2, “Phosphatidylinositol 3-kinase inhibitors” (Gilead Sciences, Inc., priority 2014, dated 2016).
# Sequences of proteins named here, by UniProt entry; tags and fusion partners are left off. A change or cut given only in a name is not applied to a line headed by its entry.
# UniProt P42338: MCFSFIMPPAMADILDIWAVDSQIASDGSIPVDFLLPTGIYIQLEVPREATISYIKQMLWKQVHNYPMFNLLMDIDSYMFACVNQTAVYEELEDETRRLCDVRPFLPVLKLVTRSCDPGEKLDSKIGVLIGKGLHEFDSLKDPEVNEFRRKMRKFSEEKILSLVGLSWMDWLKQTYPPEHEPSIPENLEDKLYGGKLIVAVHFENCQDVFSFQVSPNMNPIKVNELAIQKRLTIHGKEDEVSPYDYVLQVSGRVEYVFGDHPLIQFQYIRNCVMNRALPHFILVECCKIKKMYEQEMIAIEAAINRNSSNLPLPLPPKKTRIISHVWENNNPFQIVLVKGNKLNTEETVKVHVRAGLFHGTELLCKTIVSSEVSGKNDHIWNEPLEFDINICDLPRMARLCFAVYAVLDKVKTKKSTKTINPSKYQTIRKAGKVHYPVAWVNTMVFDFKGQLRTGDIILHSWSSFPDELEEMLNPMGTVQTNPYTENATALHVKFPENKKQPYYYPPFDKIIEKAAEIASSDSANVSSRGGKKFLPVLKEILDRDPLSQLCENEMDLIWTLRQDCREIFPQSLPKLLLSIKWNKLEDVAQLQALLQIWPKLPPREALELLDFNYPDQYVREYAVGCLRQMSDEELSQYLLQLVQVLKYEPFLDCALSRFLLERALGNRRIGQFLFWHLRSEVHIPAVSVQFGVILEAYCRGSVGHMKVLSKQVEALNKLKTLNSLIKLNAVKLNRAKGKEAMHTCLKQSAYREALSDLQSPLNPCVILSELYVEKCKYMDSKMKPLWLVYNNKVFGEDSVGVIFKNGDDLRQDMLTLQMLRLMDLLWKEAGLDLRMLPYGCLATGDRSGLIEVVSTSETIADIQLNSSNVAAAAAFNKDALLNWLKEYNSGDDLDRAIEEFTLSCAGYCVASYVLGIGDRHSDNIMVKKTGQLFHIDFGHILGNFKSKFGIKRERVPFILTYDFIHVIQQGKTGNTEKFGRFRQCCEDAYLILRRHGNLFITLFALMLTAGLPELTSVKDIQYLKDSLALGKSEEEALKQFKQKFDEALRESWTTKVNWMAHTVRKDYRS
# UniProt P48736: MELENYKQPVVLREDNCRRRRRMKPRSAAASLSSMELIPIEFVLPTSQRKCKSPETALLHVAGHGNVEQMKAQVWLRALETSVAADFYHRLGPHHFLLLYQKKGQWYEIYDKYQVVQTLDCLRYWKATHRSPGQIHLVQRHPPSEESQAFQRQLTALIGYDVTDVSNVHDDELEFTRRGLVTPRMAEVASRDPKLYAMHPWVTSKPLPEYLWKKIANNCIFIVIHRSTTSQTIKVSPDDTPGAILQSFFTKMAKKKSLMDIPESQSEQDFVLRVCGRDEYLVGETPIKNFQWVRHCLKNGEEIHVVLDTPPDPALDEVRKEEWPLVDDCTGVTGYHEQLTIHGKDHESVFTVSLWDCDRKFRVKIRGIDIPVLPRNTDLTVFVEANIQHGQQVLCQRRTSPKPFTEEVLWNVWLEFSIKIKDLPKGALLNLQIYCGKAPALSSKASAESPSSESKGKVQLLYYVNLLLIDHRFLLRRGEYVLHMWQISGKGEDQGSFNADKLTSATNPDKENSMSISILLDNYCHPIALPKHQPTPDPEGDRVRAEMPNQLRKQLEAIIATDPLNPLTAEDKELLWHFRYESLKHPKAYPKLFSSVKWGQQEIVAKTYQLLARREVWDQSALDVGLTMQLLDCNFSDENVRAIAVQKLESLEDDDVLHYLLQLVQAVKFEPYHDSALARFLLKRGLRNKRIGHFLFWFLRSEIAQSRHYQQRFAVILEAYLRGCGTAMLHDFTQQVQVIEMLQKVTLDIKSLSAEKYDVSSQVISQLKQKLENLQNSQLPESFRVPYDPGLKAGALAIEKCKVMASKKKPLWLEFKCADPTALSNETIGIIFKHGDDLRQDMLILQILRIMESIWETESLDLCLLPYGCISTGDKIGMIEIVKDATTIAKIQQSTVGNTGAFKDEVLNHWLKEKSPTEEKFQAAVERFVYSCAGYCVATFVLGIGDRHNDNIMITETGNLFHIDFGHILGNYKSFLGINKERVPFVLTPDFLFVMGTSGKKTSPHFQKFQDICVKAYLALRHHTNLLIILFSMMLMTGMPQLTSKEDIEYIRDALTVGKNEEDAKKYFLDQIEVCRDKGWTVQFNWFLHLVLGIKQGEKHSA
# UniProt O00329: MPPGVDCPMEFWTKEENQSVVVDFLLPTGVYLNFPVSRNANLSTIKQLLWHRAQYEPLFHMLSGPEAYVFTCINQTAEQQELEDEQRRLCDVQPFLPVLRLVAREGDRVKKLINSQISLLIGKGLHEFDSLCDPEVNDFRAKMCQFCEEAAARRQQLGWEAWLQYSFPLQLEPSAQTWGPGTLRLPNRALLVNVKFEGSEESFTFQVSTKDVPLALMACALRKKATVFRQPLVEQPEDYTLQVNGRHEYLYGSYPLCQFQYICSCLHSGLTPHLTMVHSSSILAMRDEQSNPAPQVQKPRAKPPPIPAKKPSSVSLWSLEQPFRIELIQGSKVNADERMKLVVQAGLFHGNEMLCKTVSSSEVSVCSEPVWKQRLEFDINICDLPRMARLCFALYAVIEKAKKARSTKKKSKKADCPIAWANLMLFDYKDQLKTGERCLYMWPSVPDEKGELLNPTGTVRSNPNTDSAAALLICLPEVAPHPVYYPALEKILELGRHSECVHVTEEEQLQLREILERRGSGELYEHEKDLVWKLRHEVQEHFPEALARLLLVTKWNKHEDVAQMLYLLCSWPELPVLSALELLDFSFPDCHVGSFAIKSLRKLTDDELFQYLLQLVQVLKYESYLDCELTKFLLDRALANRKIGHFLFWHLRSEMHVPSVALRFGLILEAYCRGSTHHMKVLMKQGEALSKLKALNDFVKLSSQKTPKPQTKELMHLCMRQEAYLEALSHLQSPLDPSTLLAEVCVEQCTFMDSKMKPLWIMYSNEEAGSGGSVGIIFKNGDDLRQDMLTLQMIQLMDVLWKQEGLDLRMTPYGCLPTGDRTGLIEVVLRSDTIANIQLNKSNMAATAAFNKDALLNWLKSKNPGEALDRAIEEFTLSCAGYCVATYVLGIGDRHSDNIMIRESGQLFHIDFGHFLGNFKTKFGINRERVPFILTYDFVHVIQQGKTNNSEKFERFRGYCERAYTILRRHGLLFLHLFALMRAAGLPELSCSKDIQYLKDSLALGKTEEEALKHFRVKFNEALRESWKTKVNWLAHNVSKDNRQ
# What was measured:
# [1] = biological target: PI3Kβ (Homo sapiens (Human), UniProt P42338); test: TR-FRET enzymatic assay of PI3K isoforms, PI3Kβ; assay type: biochemical; details: 2×Km ATP, 30 minutes at 25° C.
# [2] = biological target: PI3Kγ (Homo sapiens (Human), UniProt P48736); test: TR-FRET enzymatic assay of PI3K isoforms, PI3Kγ; assay type: biochemical; details: 2×Km ATP, PI3Kγ at 2 nM, 30 minutes at 25° C.
# [3] = biological target: PI3Kδ (Homo sapiens (Human), UniProt O00329); test: TR-FRET enzymatic assay of PI3K isoforms, PI3Kδ; details: read-out: PI3Kδ IC50, 2×Km ATP, 30 minutes at 25° C.
smiles,measurement,setting,value
"C[C@H](Nc1nc(N)nc(N)c1C#N)c1nc2cccc(Cl)c2c(=O)n1-c1cccnc1 [Compound X, (S)-2,4-diamino-6-((1-(5-chloro-4-oxo-3-(pyridin-3-yl)-3,4-dihydroquinazolin-2-yl)ethyl)amino)pyrimidine-5-carbonitrile, reference compound]",IC50,[1],11 nM
same,IC50,[2],7 nM
same,IC50,[3],0.2 nM
